Test results published in ChEMBL document CHEMBL4130448, “Novel SERMs based on 3-aryl-4-aryloxy-2H-chromen-2-one skeleton - A possible way to dual ERα/VEGFR-2 ligands for treatment of breast cancer” (Eur J Med Chem, 2017).

System: MCF7
Assay: Cytotoxicity in human MCF7 cells assessed as inhibition of cell growth incubated for 48 hrs by MTT assay
Type: functional, cell-based

Structure (SMILES)	growth inhibition (GI)
O=c1oc2ccccc2c(Nc2ccc(OCCN3CCCCC3)cc2)c1-c1ccc(F)cc1	Dose-dependent effect
O=c1oc2cc(O)ccc2c(Nc2ccc(OCCN3CCCCC3)cc2)c1-c1ccc(F)cc1	Dose-dependent effect
COc1ccc2c(Nc3ccc(OCCN4CCCCC4)cc3)c(-c3ccc(F)cc3)c(=O)oc2c1	Dose-dependent effect
O=c1oc2cc(O)ccc2c(Nc2ccc(OCCN3CCCCC3)cc2)c1-c1ccc(O)cc1	Dose-dependent effect

System: Ishikawa
Assay: Cytotoxicity in human Ishikawa cells assessed as inhibition of cell growth incubated for 48 hrs by MTT assay
Type: functional, cell-based

Structure (SMILES)	growth inhibition (GI)
COc1ccc2c(Oc3ccc(OCCN4CCCCC4)cc3)c(-c3ccc(F)cc3)c(=O)oc2c1	Dose-dependent effect
O=c1oc2cc(O)ccc2c(Oc2ccc(OCCN3CCCCC3)cc2)c1-c1ccc(F)cc1	Dose-dependent effect
COc1ccc(-c2c(Oc3ccc(OCCN4CCCCC4)cc3)c3ccc(OC)cc3oc2=O)cc1	Dose-dependent effect
O=c1oc2cc(O)ccc2c(Oc2ccc(OCCN3CCCCC3)cc2)c1-c1ccc(O)cc1	Dose-dependent effect
